esBAF inh – Bmi1 luciferase reporter increase in mESCs, primary screen, esBAF inhibitor project, mouse ES cells, Bmi1 luciferase knock-in, single point | 24 h; 100% = twice the neutral-well signal | reporter increase, % at 12.5 µM | 350,000 compounds, 2% hits | AID 602393, 2012; in the data active = activation above about 40%; inconclusive = no clear call, values can overlap the other calls;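 also: 0% = median of the plate's neutral control wells and 100% = double that signal; a rise in the Bmi1 reporter signal indicates esBAF inhibition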
PGC1a acetyl inh – inhibitors of PGC1a acetylation signal, primary screen, cell-based, U2OS, AlphaScreen, inhibitor mode | AlphaScreen anti-acetyl-lysine; with virally co-expressed GCN5 acetyltransferase | inhibition, % at 15.6 µM | 350,000 compounds, 0.17% hits;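 active = every replicate shows inhibition of at least 40%; inconclusive = mean inhibition at least 40% but some replicate below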;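 also: 0% = neutral control wells and 100% = positive control wells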
Statin myotox sup – suppressors of statin myotoxicity in C2C12 myotubes, primary screen, cell-based, single point, plate reader | C2C12 myotubes + simvastatin, ATP luminescence, 48 h; scaled: DMSO 0, geranylgeraniol control 100 | AID 602340, 2012 | rescue of ATP level, % at 7.49 µM | 330,000 compounds, 0.78% hits;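 active = mean ATP rescue above about 67%, or every replicate alone reaching that limit, limit read from the data, passing the limit was not always enough; inconclusive = no clear call, values can overlap the other calls; inactive = mean under the limit and some replicate under it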;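 also: myotubes were challenged with 10 µM simvastatin during compound exposure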
Yeast UUG start-1 – modulators of start codon recognition fidelity in yeast; AID 602363; activity score, % at 18.7 µM; S. cerevisiae UUG-firefly luciferase reporter, luminescence/redox ratio; actives 0.13% (n = 350,000);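 active = replicate mean at a twofold rise or more, about +100% in these data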;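 note: firefly luciferase made from a UUG start codon reports start codon fidelity; reporter light over untreated wells divided by growth signal over untreated wells; some hits fall short of that in this replicate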
PglD inh – C. jejuni PglD acetyltransferase inhibitors, primary screen, biochemical, DTNB colorimetric, single point; UDP-N-acetylbacillosamine N-acetyltransferase PglD (Campylobacter jejuni); purified PglD enzyme, DTNB colorimetric CoA detection; inhibition, % at 12.5 µM; 360,000 compounds, 0.098% hits; AID 602405, 2012; in the data active = inhibition above about 16%, passing the limit was not always enough; inconclusive = no clear call, values can overlap the other calls
E-sel inducer – E-selectin induction in HUVECs, primary screen, imaging, HUVEC, immunofluorescence imaging, single point; P16581; normalized: neutral wells 0, TNF-alpha wells 100; activation, % at 7.58 µM; 260,000 compounds, 0.37% hits; AID 686992, 2013;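 active = mean E-selectin-positive cell signal at least 10% of the positive control, reached in at least 60% of replicates, without over 20% cell loss; inconclusive = no rule given, readout overlaps actives, possibly toxicity-flagged; inactive = the rest, including those meeting only one limit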
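System: HUVEC, human umbilical vein endothelial cells; quantity: 3,000 cells/well; buffer or medium: EGM-2 medium, gelatin-coated wells; dosing: single-point compound dose; detection: immunofluorescence imaging; evaluation: % PE-positive cells; benchmarks: TNF-alpha, DMSO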
Yeast UUG start-2 – enhancers of UUG start codon usage in yeast, dose response, S. cerevisiae, UUG firefly luciferase, cherry-pick, set 2; shares compounds with Yeast UUG start-1; 540 tested, under 10 active; luminescence, 4 h; 100% means double the DMSO signal; activation, % at 38 µM; AID 652061, 2013;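 active = signal increase whose fitted curve reaches an absolute level of 40 at a concentration under 10 µM; inactive = activity opposite to the expected increase, or the rest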
The depositor's hits bear a star; i = inactive; ? = inconclusive; nt = not tested or not shown. An excerpt weighted towards active compounds, which were near 2.8% of everything screened.

SMILES | esBAF inh | PGC1a acetyl inh | Statin myotox sup | Yeast UUG start-1 | PglD inh | E-sel inducer | Yeast UUG start-2
CCc1ccccc1Nc1nc2ccccc2[nH]1 | nt | 5 | nt | 0 | 3 | 0 | nt
COC1(OC)C(/C=C/c2ccc(C)cc2)C(C#N)(C#N)C1(OC)OC (stereo not drawn) | -10 | -17 | -1 | 549* | -2 | nt | 18
CC(=O)NCCCc1nc2ccccc2n1Cc1ccccc1F | 0 | -1 | 1 | 174* | -2 | nt | -4
OCCNc1nc(NCc2ccccc2)c2ccccc2n1 | -3 | 0 | -27 | 155* | -8 | 0 | -3
Cc1c(C(=O)OCC(=O)c2ccc3c(c2)OCCO3)oc2ccccc12 | 31 | 4 | -14 | -5 | 0 | nt | 3
CN1C(=O)c2cc(NC(=O)C3CCCCC3)ccc2OC[C@@H]2O[C@H](CC(=O)NCc3ccccc3F)CC[C@@H]21 | 5 | -5 | 0 | nt | -2 | 0 | nt
CCOc1ccc(C(=O)NCC(C)C)cc1 | 12 | nt | nt | 1 | -1 | nt | nt
CCOc1ccc(C(=O)NCC(C)NC(=O)c2ccc(OCC)cc2)cc1 (stereo not drawn) | -13 | nt | 14 | 109* | 4 | nt | 10
CC(=O)N(C)C[C@@H]1Oc2cc(-c3cccnc3)ccc2S(=O)(=O)N([C@@H](C)CO)C[C@@H]1C | 1 | -4 | -9 | 3 | -1 | 0 | nt
O=C(COC(=O)Cc1ccc(Cl)cc1)Nc1c(F)cccc1F | -7 | -3 | -5 | 460* | -3 | nt | -5
O=C(COC(=O)Cc1ccc(Cl)cc1)Nc1ccccc1F | nt | -6 | nt | nt | nt | 5 | nt
CC1Sc2ccc(C(=O)N(CCc3ccccc3)Cc3ccccc3)cc2NC1=O (stereo not drawn) | 10 | -7 | 12 | 103* | 3 | 0 | 18
COc1ccc(S(=O)(=O)Nc2ccc3c(c2)CC(=O)N([C@H](C)CO)C[C@H](C)[C@@H](CN(C)Cc2ccc(C(=O)Nc4ccccc4N)cc2)O3)cc1 | -14 | -8 | -37 | nt | nt | 0 | nt
C[C@@H]1CN([C@H](C)CO)C(=O)c2cccc(NC(=O)c3ccc(-c4nccs4)cc3)c2O[C@H]1CN(C)S(=O)(=O)c1ccc(Cl)cc1 | -9 | 5 | -30 | -2 | 2 | 8 | nt
O=C(Cn1cc(C(=O)c2cccs2)c2ccccc21)NCC1CCCO1 (stereo not drawn) | 1 | -86 | 4 | -23 | -1 | nt | -5
O=Cc1cn(CC(=O)NCC2CCCO2)c2ccccc12 (stereo not drawn) | -3 | 0 | 4 | -7 | 2 | nt | nt
CC1CCN(C(=O)Cn2cc(C(=O)C3CC3)c3ccccc32)CC1 | 1 | 2 | -8 | -17 | 6 | nt | -2
CC1CCN(C(=O)Cn2cc(C#N)c3ccccc32)CC1 | -2 | 1 | 4 | -8 | 3 | nt | nt
CCC(=O)c1cn(CC(=O)NCC2CCCO2)c2ccccc12 (stereo not drawn) | -1 | nt | nt | -13 | 0 | nt | 7
O=C(Cn1cc(C(=O)C2CCCCC2)c2ccccc21)NCC1CCCO1 (stereo not drawn) | -5 | 3 | -4 | -16 | nt | nt | -13

Two records drawn at random from those above, as already listed:
SMILES | esBAF inh | PGC1a acetyl inh | Statin myotox sup | Yeast UUG start-1 | PglD inh | E-sel inducer | Yeast UUG start-2
CCOc1ccc(C(=O)NCC(C)NC(=O)c2ccc(OCC)cc2)cc1 (stereo not drawn) | -13 | nt | 14 | 109* | 4 | nt | 10
O=C(Cn1cc(C(=O)c2cccs2)c2ccccc21)NCC1CCCO1 (stereo not drawn) | 1 | -86 | 4 | -23 | -1 | nt | -5

Further structures follow:
SMILES | esBAF inh | PGC1a acetyl inh | Statin myotox sup | Yeast UUG start-1 | PglD inh | E-sel inducer | Yeast UUG start-2
O=C(Cn1cc(C(=O)c2cccs2)c2ccccc21)NCc1ccc2c(c1)OCO2 | 8 | nt | -5 | -4 | 2 | 0 | nt
CC(=O)N1CCCCN2[C@H](C1)[C@H](c1ccc(-c3ccc(C)cc3)cc1)[C@@H]2CO | nt | -3 | nt | -5 | 0 | 0 | nt
CS(=O)(=O)Nc1ccc2c(c1)[C@@H]1C[C@H](CC(=O)NCc3cc(F)ccc3F)O[C@H](CO)[C@@H]1O2 | 4 | -3 | -4 | nt | -1 | 0 | nt
COc1ccc(S(=O)(=O)Nc2ccc3c(c2)CC(=O)N([C@H](C)CO)C[C@@H](C)[C@H](CN(C)CC2CCCCC2)O3)cc1 | 4 | -1 | ? | -1 | 8 | -1 | nt
Cc1cc(SCC(=O)NCC2CCCO2)nc2ccccc12 (stereo not drawn) | 3 | nt | 3 | 146* | 6 | 0 | -7
Cc1cc(SCC(=O)NC2CC2)nc2ccccc12 | 9 | -4 | 7 | -14 | -2 | nt | nt
Fc1ccc(NC(=S)NCc2cccs2)cc1 | 10 | 9 | -37 | 253* | 1 | nt | -6
O=[N+]([O-])c1c(NCc2ccco2)ccc2nonc12 | nt | -2 | nt | 134* | -3 | nt | 3
CCC1=C(OC(=O)c2ccccc2)C(C)(C)C(c2ccccc2)OC1=O (stereo not drawn) | 7 | -13 | 2 | 105* | 8 | nt | 9
CO[C@H]1CN(C)C(=O)c2ccc(NC(=O)C3CC3)cc2OC[C@H](C)N(C(=O)Cc2ccccn2)C[C@H]1C | 1 | -3 | -7 | 5 | -6 | 0 | nt
Cc1ccc(C)c(N2C(=N)S/C(=C\c3ccc(-c4ccccc4C(=O)O)o3)C2=O)c1 | 2 | -3 | 1 | 113* | 1 | nt | -4
COc1c(C)cccc1C(=O)NCc1ccc2c(c1)OCO2 | 14 | 2 | 11 | active | 8 | nt | -10
Cc1c(C(=O)NCc2ccc3c(c2)OCO3)cccc1[N+](=O)[O-] | nt | nt | nt | nt | nt | -2 | nt
CO[C@@H]1CN(C)C(=O)c2ccc(NC(=O)C3CCC3)cc2OC[C@H](C)N(Cc2ccccn2)C[C@H]1C | -2 | -5 | 0 | -15 | 0 | 0 | nt
CCN(CC)CC#CC(O)(c1ccccc1)c1ccccc1 | nt | -3 | nt | nt | nt | 0 | 15
CCN(CC)CC#CCC(O)(c1ccccc1)C1CCCC1 (stereo not drawn) | -1 | 1 | -3 | -13 | -2 | nt | nt
CCN(CC)CC#CCC(OC)(c1ccccc1)c1ccccc1 | nt | nt | nt | nt | nt | 0 | 4
COc1ccc(CN(C)C[C@H]2Oc3ccc(NS(=O)(=O)c4ccc(OC)cc4)cc3C(=O)N([C@H](C)CO)C[C@H]2C)cc1 | 0 | -7 | 8 | 15 | -3 | 1 | nt
COc1ccc(S(=O)(=O)N2CCN(CCCOc3ccc(F)cc3)CC2)cc1OC | 0 | nt | 0 | 303* | -9 | 0 | 7
COc1ccc(S(=O)(=O)N2CCN(c3ccc(F)cc3)CC2)cc1OC | -5 | nt | 8 | 4 | 1 | 0 | nt
O=C(Nc1nc(-c2ccc(Cl)s2)cs1)c1ccco1 | nt | nt | nt | nt | nt | -1 | nt
O=C(O)Cc1csc(NC(=O)c2ccco2)n1 | -2 | 8 | nt | 373* | 0 | nt | 10
CN(C[C@H]1[C@H](c2ccccc2)[C@@H](CO)N1C(=O)c1ccccc1)C(=O)C1CC1 | -1 | 1 | 9 | 156* | 2 | 0 | i

Laid out differently: entries from further up.
SMILES	esBAF inh	PGC1a acetyl inh	Statin myotox sup	Yeast UUG start-1	PglD inh	E-sel inducer	Yeast UUG start-2
CC1CCN(C(=O)Cn2cc(C(=O)C3CC3)c3ccccc32)CC1	1	2	-8	-17	6	nt	-2
CC1Sc2ccc(C(=O)N(CCc3ccccc3)Cc3ccccc3)cc2NC1=O (stereo not drawn)	10	-7	12	103*	3	0	18
CCN(CC)CC#CCC(O)(c1ccccc1)C1CCCC1 (stereo not drawn)	-1	1	-3	-13	-2	nt	nt
